The experiment has as its target T1, Dihydrofolate reductase (Mycobacterium avium, UniProt O30463).
T1 sequence (O30463 whole entry): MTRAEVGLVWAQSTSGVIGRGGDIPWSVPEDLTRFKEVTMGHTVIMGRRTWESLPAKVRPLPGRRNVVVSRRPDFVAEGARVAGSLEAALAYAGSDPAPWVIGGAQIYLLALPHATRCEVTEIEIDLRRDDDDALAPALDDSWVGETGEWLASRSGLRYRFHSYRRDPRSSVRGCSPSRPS
As to the kind of experiment: Antimycobacterial activity against Mycobacterium avium complex dihydrofolate reductase (MAC DHFR).

The structures appear in SMILES notation. pIC50: −log10 of the molar value.

Broadly, the pIC50 is −log10 of the IC50, conventionally taken in molar units. High values mean a small IC50, low ones a large IC50. Regarding `CCOc1ccc(OCC)c(NCc2cnc3nc(N)nc(N)c3c2C)c1`, the pIC50 was 9.08. In the case of `Cc1cc(Cl)ccc1NCc1cnc2nc(N)nc(N)c2c1C` it was 9.72.

For the origin of these results see ChEMBL document CHEMBL1135401, “Pharmacophore mapping of a series of 2,4-diamino-5-deazapteridine inhibitors of Mycobacterium avium complex dihydrofolate reductase” (J Med Chem, 2002).
